{"source": "patent US10604696B2", "about": "“Process for acidizing” (Cleansorb Limited, priority 2014, dated 2020)", "origin": "cited, not measured here", "details": "in water; cited from earlier work"}
{"substance": "calcium gluconate", "values": [{"measurement": "Solubility", "result": "about 3.5 % by weight"}]}
